# Reference: IntAct's records for PubMed 19103749
# B1: Transcription factor p65 (Homo sapiens), Q04206 (parent)
# chain: MDELFPLIFPAEPAQASGPYVEIIEQPKQRGMRFRYKCEGRSAGSIPGERSTDTTKTHPTIKINGYTGPGTVRISLVTKDPPHRPHPHELVGKDCRDGFYEAELCPDRCIHSFQNLGIQCVKKRDLEQAISQRIQTNNNPFQVPIEEQRGDYDLNAVRLCFQVTVRDPSGRPLRLPPVLSHPIFDNRAPNTAELKICRVNRNSGSCLGGDEIFLLCDKVQKEDIEVYFTGPGWEARGSFSQADVHRQVAIVFRTPPYADPSLQAPVRVSMQLRRPSDRELSEPMEFQYLPDTDDRHRIEEKRKRTYETFKSIMKKSPFSGPTDPRPPPRRIAVPSRSSASVPKPAPQPYPFTSSLSTINYDEFPTMVFPSGQISQASALAPAPPQVLPQAPAPAPAPAMVSALAQAPAPVPVLAPGPPQAVAPPAPKPTQAGEGTLSEALLQLQFDDEDLGALLGNSTDPAVFTDLASVDNSEFQQLLNQGIPVAPHTTEPMLMEYPEAITRLVTGAQRPPDPAPAPLGAPGLPNGLLSGDEDFSSIADMDFSALLSQISS
# Variants of: B1
# Conditions: with brd4_mouse Brd4
row,effect of a mutation on the interaction,Variant
1,disrupting interaction,MDELFPLIFPAEPAQASGPYVEIIEQPKQRGMRFRYKCEGRSAGSIPGERSTDTTKTHPTIKINGYTGPGTVRISLVTKDPPHRPHPHELVGKDCRDGFYEAELCPDRCIHSFQNLGIQCVKKRDLEQAISQRIQTNNNPFQVPIEEQRGDYDLNAVRLCFQVTVRDPSGRPLRLPPVLSHPIFDNRAPNTAELKICRVNRNSGSCLGGDEIFLLCDKVQKEDIEVYFTGPGWEARGSFSQADVHRQVAIVFRTPPYADPSLQAPVRVSMQLRRPSDRELSEPMEFQYLPDTDDRHRIEEKRKRTYETFRSIMKKSPFSGPTDPRPPPRRIAVPSRSSASVPKPAPQPYPFTSSLSTINYDEFPTMVFPSGQISQASALAPAPPQVLPQAPAPAPAPAMVSALAQAPAPVPVLAPGPPQAVAPPAPKPTQAGEGTLSEALLQLQFDDEDLGALLGNSTDPAVFTDLASVDNSEFQQLLNQGIPVAPHTTEPMLMEYPEAITRLVTGAQRPPDPAPAPLGAPGLPNGLLSGDEDFSSIADMDFSALLSQISS [K310R]
